IC50 data for eleven compounds are collected here from ChEMBL document CHEMBL4152346, “Sulfonamido-2-arylbenzoxazole GroEL/ES Inhibitors as Potent Antibacterials against Methicillin-Resistant Staphylococcus aureus (MRSA)” (J Med Chem, 2018).

The chains behind the UniProt entries cited, without tags or fusion partners.
UniProt P0A6F5, whole entry, looked up: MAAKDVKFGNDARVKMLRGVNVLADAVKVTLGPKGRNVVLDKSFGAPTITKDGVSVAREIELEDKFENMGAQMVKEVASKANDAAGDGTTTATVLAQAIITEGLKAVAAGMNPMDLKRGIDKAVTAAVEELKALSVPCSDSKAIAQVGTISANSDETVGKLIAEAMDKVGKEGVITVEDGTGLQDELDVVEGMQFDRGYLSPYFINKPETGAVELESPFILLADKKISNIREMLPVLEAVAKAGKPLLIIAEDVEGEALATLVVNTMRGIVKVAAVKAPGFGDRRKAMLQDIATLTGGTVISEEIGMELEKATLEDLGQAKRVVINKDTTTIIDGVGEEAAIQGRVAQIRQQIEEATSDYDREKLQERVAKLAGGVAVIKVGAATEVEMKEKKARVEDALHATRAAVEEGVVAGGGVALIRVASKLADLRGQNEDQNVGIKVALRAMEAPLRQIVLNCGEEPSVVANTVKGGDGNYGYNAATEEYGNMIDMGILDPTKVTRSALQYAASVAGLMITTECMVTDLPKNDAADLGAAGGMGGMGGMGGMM
UniProt P10809, whole entry: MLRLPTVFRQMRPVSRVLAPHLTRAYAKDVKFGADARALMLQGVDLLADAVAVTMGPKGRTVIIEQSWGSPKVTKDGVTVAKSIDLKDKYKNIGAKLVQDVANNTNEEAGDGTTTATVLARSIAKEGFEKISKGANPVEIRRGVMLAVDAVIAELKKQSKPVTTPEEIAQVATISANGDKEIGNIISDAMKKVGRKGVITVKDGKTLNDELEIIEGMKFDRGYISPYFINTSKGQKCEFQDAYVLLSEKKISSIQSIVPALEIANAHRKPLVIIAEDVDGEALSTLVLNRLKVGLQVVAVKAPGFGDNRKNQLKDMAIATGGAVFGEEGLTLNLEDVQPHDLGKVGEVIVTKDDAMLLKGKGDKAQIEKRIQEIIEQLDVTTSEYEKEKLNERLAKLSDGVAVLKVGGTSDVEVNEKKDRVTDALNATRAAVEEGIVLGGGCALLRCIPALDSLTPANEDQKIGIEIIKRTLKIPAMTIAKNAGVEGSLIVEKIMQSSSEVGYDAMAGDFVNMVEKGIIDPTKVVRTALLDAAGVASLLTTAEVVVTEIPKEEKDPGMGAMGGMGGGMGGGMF

Broadly, the IC50 is the concentration that inhibits the measured activity by half.

Structures are written as SMILES.

Assay [1] concerns the target T1, E. coli GroEL/ES (Escherichia coli, UniProt P0A6F5). Nature of the assay: Inhibition of Escherichia coli GroEL expressed in Escherichia coliDH5alpha/Escherichia coli GroES expressed in Escherichia coli BL21 (DE3) assessed as reduction in GroEL/GroES-mediated denatured MDH refolding by measuring MDH enzyme activity using sodium mesoxalate as substrate after 20 to 40 mins by spectrometric analysis. In outline:
(§1)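 Coupled refolding assay: denatured rhodanese or MDH refolded by GroEL/ES (50 nM GroEL tetradecamer, 700 nM subunits), read-out via enzymatic activity of refolded substrate; counter-screened against native enzyme activity. IC₅₀ as back-calculated mean of log-transformed replicate values.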

The target of assay [2] is T1, E. coli GroEL/ES. Nature of the assay: Inhibition of Escherichia coli GroEL expressed in Escherichia coli DH5alpha/Escherichia coli GroES expressed in Escherichia coli BL21 (DE3) assessed as reduction in GroEL/GroES-mediated denatured rhodanese refolding by measuring rhodanese enzyme activity after 45 mins by spectrometric analysis. In outline:
as §1

The target of assay [3] is HSP60/HSP10 (Homo sapiens, UniProt P10809). Nature of the assay: Inhibition of human N-terminal octa-His-tagged HSP60 expressed in Escherichia coli Rosetta(DE3) pLysS/human HSP10 expressed in Escherichia coli Rosetta(DE3) assessed as reduction in HSP60/HSP10-mediated denatured MDH refolding by measuring MDH enzyme activity using sodium mesoxalate as substrate after 40 to 60 mins by spectrometric analysis. Put shortly:
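Chaperonin-mediated refolding of denatured MDH, coupled to MDH enzymatic activity as the reporter. Human HSP60/10 (HSP60 without its 26-residue mitochondrial signal peptide) or E. coli GroEL/ES was used, with GroEL tetradecamer at 50 nM (700 nM subunits) during the refolding cycle. IC50s from replicate dose-response curves were averaged as logs after ROUT outlier removal.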

Turning to `O=S(=O)(Nc1ccc2oc(-c3ccc(NS(=O)(=O)c4ccc(Cl)s4)cc3)nc2c1)c1ccc(Cl)c(C(F)(F)F)c1`, the IC50 in assay [1] was found to be 5.2 µM; in assay [2] it was 11 µM.
With `O=S(=O)(Nc1ccc2oc(-c3ccc(NS(=O)(=O)c4ccc(Cl)s4)cc3)nc2c1)c1cccc(C(F)(F)F)c1`, the IC50 in assay [2] was determined as 11 µM.
As to `O=S(=O)(Nc1ccc(-c2nc3cc(NS(=O)(=O)c4ccc(Cl)s4)ccc3o2)cc1)c1cccc(C(F)(F)F)c1`, the values for the IC50 in assay [1], in assay [2] and in assay [3] were 2.2 µM, 4.5 µM and 4.5 µM, respectively.
On to `O=S(=O)(Nc1ccc(-c2nc3cc(NS(=O)(=O)c4cccc(C(F)(F)F)c4)ccc3o2)cc1)c1cccc(C(F)(F)F)c1`, for which the IC50 in assay [1] was determined as 11 µM.
In the case of `O=S(=O)(Nc1ccc2oc(-c3ccc(NS(=O)(=O)c4cccc5nonc45)cc3)nc2c1)c1ccc(Cl)s1`, the IC50 in assay [2] turned out to be 19 µM.
In the case of `O=[N+]([O-])c1ccc(S(=O)(=O)Nc2ccc(-c3nc4cc(NS(=O)(=O)c5ccc([N+](=O)[O-])cc5)ccc4o3)cc2)cc1`, the results for the 50% inhibitory concentration (IC50) in assay [1] and in assay [2] were 24 µM and 22 µM, respectively.
On the same counts, the results for `O=S(=O)(Nc1ccc(-c2nc3cc(NS(=O)(=O)c4ccc(Cl)cc4)ccc3o2)cc1)c1ccc(Cl)cc1` are 15 µM and 29 µM.
Take `O=[N+]([O-])c1cc(S(=O)(=O)Nc2ccc3oc(-c4ccc(NS(=O)(=O)c5ccc(Cl)s5)cc4)nc3c2)ccc1Cl`: the IC50 in assay [1] was determined as 1.1 µM.
`O=S(=O)(Nc1ccc(-c2nc3cc(NS(=O)(=O)c4ccc(Cl)s4)ccc3o2)cc1)c1ccc(Cl)c(C(F)(F)F)c1`: the IC50 in assay [1] stood at 2.6 µM; in assay [2], 7.3 µM.
Turning to `O=S(=O)(Nc1ccc(-c2nc3cc(NS(=O)(=O)c4ccc(Cl)s4)ccc3o2)cc1)c1ccc(Cl)s1`, the IC50 in assay [1] was 2.4 µM.
For `NCc1ccc(S(=O)(=O)Nc2ccc3oc(-c4ccc(NS(=O)(=O)c5ccc(Cl)s5)cc4)nc3c2)cc1`, the IC50 in assay [2] came out at 11 µM.
